The assay deals with human PERK (Carna Bioscience # 05-155) (Homo sapiens, UniProt Q9NZJ5). Kind of assay: biochemical.

Sequences of proteins named here, by UniProt entry; tags and fusion partners are left off. Residues count along the entry.
UniProt Q9NZJ5, 536-1116 limits assumed: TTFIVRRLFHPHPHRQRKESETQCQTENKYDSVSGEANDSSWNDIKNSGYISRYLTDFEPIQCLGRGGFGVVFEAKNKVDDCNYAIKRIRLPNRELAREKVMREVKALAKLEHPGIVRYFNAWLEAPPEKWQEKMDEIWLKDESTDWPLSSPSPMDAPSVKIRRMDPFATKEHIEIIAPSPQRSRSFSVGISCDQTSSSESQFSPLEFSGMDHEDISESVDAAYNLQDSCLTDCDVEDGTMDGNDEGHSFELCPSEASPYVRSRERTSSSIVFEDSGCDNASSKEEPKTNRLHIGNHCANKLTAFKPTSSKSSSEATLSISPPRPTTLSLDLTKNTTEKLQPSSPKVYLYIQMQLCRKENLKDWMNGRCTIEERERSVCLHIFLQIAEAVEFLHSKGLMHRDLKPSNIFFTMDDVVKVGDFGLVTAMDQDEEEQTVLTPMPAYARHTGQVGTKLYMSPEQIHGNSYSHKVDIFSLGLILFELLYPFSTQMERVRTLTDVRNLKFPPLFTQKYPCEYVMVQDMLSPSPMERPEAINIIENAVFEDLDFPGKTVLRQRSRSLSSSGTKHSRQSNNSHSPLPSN

The values below come from publication doi:10.1101/2025.06.29.662197v2 (biorxiv, 2026).

pIC50: −log10 of the molar value.

The compound `Cn1cc(-c2ccc3c(c2)CCN3C(=O)Cc2cccc(C(F)(F)F)c2)c2c(N)ncnc21` [GSK2606414] gave a pIC50 of 9.18.
